Source: ChEMBL document CHEMBL1149785, “Synthesis and biological evaluation of helicid analogues as novel acetylcholinesterase inhibitors” (Eur J Med Chem, 2008)

The chains behind the UniProt entries cited, without tags or fusion partners. Residues count along the entry.
UniProt O42275, 24-633 limits assumed: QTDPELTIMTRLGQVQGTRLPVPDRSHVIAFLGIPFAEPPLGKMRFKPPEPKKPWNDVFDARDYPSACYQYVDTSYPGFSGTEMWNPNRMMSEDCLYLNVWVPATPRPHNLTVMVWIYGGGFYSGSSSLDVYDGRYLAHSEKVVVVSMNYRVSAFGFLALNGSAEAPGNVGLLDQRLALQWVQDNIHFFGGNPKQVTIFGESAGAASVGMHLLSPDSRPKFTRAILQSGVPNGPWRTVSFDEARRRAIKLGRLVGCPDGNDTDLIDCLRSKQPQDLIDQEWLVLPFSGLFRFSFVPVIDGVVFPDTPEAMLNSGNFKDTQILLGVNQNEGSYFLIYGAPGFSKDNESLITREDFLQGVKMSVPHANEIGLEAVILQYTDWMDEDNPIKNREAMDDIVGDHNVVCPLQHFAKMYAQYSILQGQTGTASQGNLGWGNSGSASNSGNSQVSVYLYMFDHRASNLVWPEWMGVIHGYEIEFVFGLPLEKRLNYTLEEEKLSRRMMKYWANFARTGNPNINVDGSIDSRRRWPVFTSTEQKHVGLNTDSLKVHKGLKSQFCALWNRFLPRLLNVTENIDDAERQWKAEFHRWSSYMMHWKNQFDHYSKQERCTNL
UniProt P81908, whole entry, looked up: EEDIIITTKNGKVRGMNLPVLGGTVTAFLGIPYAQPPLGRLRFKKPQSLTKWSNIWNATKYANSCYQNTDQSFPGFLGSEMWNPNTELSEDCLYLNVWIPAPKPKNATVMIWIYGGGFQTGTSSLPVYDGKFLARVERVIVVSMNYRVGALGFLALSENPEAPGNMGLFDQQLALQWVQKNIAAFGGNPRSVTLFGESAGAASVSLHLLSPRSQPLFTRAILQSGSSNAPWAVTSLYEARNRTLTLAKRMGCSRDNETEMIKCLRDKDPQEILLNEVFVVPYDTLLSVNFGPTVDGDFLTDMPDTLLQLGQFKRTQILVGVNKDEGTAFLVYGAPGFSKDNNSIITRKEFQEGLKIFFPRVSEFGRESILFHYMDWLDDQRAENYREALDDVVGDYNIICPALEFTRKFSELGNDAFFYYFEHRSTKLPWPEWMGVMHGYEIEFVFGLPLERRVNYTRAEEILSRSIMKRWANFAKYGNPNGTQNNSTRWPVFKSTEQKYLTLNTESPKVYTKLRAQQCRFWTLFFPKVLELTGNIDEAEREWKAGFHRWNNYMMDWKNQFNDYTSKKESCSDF

How the values were obtained:
Acetylcholinesterase = Acetylcholinesterase (Electrophorus electricus, UniProt O42275); test: Inhibition of Electrophorus electricus AChE by Ellman's method
Cholinesterase = Cholinesterase (Equus caballus, UniProt P81908); test: Inhibition of horse serum BuChE by Ellman's method

Compound | IC50 (Acetylcholinesterase) [µM] | IC50 (Cholinesterase) [µM]
CC(=O)OC[C@H]1O[C@@H](Oc2ccc(/C=N/O)cc2)[C@H](OC(C)=O)[C@@H](OC(C)=O)[C@@H]1OC(C)=O | 9.15 | –
OC[C@H]1O[C@@H](Oc2ccc(/C=N/O)cc2)[C@H](O)[C@@H](O)[C@@H]1O | 4.79 | –
O=C(O[C@H]1[C@H](Oc2ccc(/C=N/O)cc2)OC[C@@H](OC(=O)c2ccccc2)[C@H]1OC(=O)c1ccccc1)c1ccccc1 | 12.6 | 39.6
